Assay results reported in patent US10676518B1, “A4B2 nicotinic acetylcholine receptors with reduced or increased nicotine sensitivity and transgenic mouse model for the same” (University of Puerto Rico, priority 2015, dated 2020).

Target: T1, α4β2 nAChRs expressed in Xenopus laevis oocytes (Rattus norvegicus, UniProt P09483+P12390)
T1 construct: expressed in transfected cells; host or cells: Xenopus laevis oocytes (stage V and VI), injected with in vitro transcribed α4 and β2 mRNA
Experiment: Efficacy of agonist A-85380 versus ACh for subunit stoichiometry determination
Format: cell-based
Conditions: A-85380 100 nM vs ACh 300 μM
Description: To determine whether the α4β2 mutations α4S469Aβ2, α4S471Dβ2, α4T536Aβ2 and α4Y576Aβ2 expressed in Xenopus laevis oocytes assemble in the α4(2):β2(3) or the α4(3):β2(2) stoichiometry, we estimated the efficacy of agonist A-85380 when compared to ACh 300 μM. […] The efficacy of A-85380 in WTα4(2):β2(3) and […] was determined by comparing the macroscopic current elicited by A-85380 100 nM and ACh 300 μM in oocytes microinjected α4β2 mRNA in 1:10 and 10:1 ratios, respectively. The efficacy of A-85380 in α4S469Aβ2, α4S471Dβ2, α4T536Aβ2 and α4Y576Aβ2 was determined by comparing the macroscopic current elicited by A-85380 100 nM and ACh 300 μM in oocytes microinjected α4β2 mRNA in 2:3 ratio. The changes in stoichiometry in these four mutants were assessed by comparing the efficacy of A-85380 in each mutant compared to WTα4(2):β2(3) and WTα4(3):β2(2).

Substance: WT α4β2: wild-type rat α4β2 neuronal nicotinic acetylcholine receptor expressed in Xenopus laevis oocytes [reference compound]
- efficacy of A-85380, 2:3 ratio compared with 1:10 ratio (α4β2 mRNA 2:3): no significant difference
- efficacy of A-85380, 10:1 ratio compared with 1:10 ratio (α4β2 mRNA 10:1): significantly lower
